Screening data from PubChem BioAssay.
RAD54 branch: RAD54 (human) branch migration inhibition; Q92698; RAD54 Holliday junction branch migration, FAM/BHQ fluorescence; inhibition, % at 10.4 µM; actives 0.14% (n = 360,000); AID 602329;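 active means mean normalized replicate activity at least 40 and at least half of replicates scoring 40 or more; inconclusive means only one of the two criteria met; inactive means mean below 40 and under half of replicates reaching 40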;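 further: 0% = median of neutral control wells and 100% = median of positive control wells; inhibitors cause a drop in the FAM fluorescence signal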
MLL AF4-AF9 inh: inhibitors of human MLL-AF4/AF9 interaction. P42568. actives 0.47% (n = 350,000). inhibition, % at 10 µM. AID 651704. AlphaScreen, biotin-AF4 peptide binding to FLAG-AF9;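 active means every replicate reaching a set inhibition limit, whatever the replicate mean, cut at about 25% in these data; inconclusive means mean inhibition reaches that limit but some replicates miss it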;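 further: 0% = plate neutral control median and 100% = total signal loss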
RAD52 anneal inh: blocks human RAD52 DNA annealing; P43351; recombinant RAD52 DNA annealing, FRET fluorescence; inhibition, % at 18.7 µM; actives 0.46% (n = 360,000);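 active means every replicate showing at least 50% inhibition; inconclusive means mean inhibition at least 50% but not in every replicate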
E-selectin induc: induces E-selectin expression in human endothelial cells | HUVEC E-selectin immunofluorescence imaging; normalized: neutral wells 0, TNF-alpha wells 100 | activation, % at 7.58 µM | AID 686992 | actives 0.37% (n = 260,000) | P16581;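 active means mean E-selectin-positive cell signal at least 10% of the positive control, reached in at least 60% of replicates, without over 20% cell loss; inconclusive means no rule given, readout overlaps actives, possibly toxicity-flagged; inactive means the rest, including those meeting only one limit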
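Test system – human umbilical vein endothelial cells (HUVEC), E-selectin induction · Input – 3,000 HUVEC seeded per well · Buffer or medium – EGM-2, gelatin · Compound dosing – single-point compound dose · Detection – immunofluorescence imaging · Measure – percent E-selectin-positive cells · Controls – TNF-alpha high, DMSO low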
Yeast UUG start-1: modulators of yeast start codon fidelity, primary screen, whole organism, S. cerevisiae, single point, plate reader | AID 602363, 2012 | S. cerevisiae UUG-firefly luciferase reporter, luminescence/redox ratio | activity score, % at 18.7 µM | hit rate 0.13% among 350,000;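 active = replicate mean at a twofold rise or more, about +100% in these data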;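 also: firefly luciferase made from a UUG start codon reports start codon fidelity; reporter light over untreated wells divided by growth signal over untreated wells; some hits fall short of that in this replicate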
SIRT5 block: blocks human SIRT5 desuccinylation of peptide | Q9NXA8 | Purified SirT5, succinyl-peptide AMC, trypsin-coupled fluorescence | inhibition, % at 15 µM | actives 1.1% (n = 330,000); in the data active means inhibition above about 15%; inconclusive means no clear call, values can overlap the other calls
DNA binding: DNA binding artifact in Rad54 counter-screen. shares compounds with RAD54 branch. Acridine orange-DNA displacement, fluorescence polarization, 20 min. AC50, µM (series often up to 35 µM), inactives show top-dose activity change, negative = DNA binding. actives 8% (n = 460). AID 651673;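 active means signal drop giving an AC50 within twice the top valid tested concentration of each sample, actives reach about 35 µM in these data; inactive means activity opposite to expected, plus the rest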;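 further: polarization loss reports compound binding to salmon sperm DNA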
Yeast UUG start-2: modulators of start codon recognition fidelity in yeast; 540 tested, under 10 active; S. cerevisiae UUG-start firefly luciferase, luminescence, 4 h; 100% means double the DMSO signal; activation, % at 38 µM; shares compounds with Yeast UUG start-1;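 active means signal increase whose fitted curve reaches an absolute level of 40 at a concentration under 10 µM; inactive means activity opposite to the expected increase, or the rest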
Alpha interfer: interferes with the AlphaScreen assay signal | AlphaScreen interference counter-screen, signal luminescence | AC50, µM (series often up to 12 µM), without a hit: at the top dose activity change, negative = inhibition | AID 720494 | shares compounds with MLL AF4-AF9 inh | actives 45% (n = 530); cut-off not given, nearly all actives have AC50 up to about 14 µM
DNA binder FP: binds DNA, flagging false RAD52 inhibitor hits; shares compounds with RAD52 anneal inh; Salmon sperm DNA/acridine orange FP displacement, DNA binding; AC50, µM; actives 8% (n = 1,000);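 active means fitted half-maximal concentration for signal loss at or below twice the highest dose tested, in every separate run, actives reach about 64 µM in these data; inconclusive means runs disagree, or flat partial signal loss, or poor fit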
* hit, by the source's call; i = inactive; ? = inconclusive; . = no result given; ! = a repeat was not active. A selection: hits, their analogues and other compounds. The true share with any hit is near 1.8%.

SMILES	RAD54 branch	MLL AF4-AF9 inh	RAD52 anneal inh	E-selectin induc	Yeast UUG start-1	SIRT5 block	others
c1ccc2c(c1)[IH]c1ccccc1-2	52*	-12	47	8	151*	-7
CCOc1cc2c(cc1OCC)-n1cccc1C(c1cc(OC)ccc1F)NC2 (centres undefined)	2	27*	-9	0	22	-2
CCOc1cc2c(cc1OCC)-n1cccc1C(c1cccc(F)c1)NC2 (centres undefined)	4	26*	-7	.	-13	-2
CCOc1cc2c(cc1OCC)-n1cccc1C(c1ccc(OC)c(O)c1)NC2 (centres undefined)	2	17	-2	0	-5	1
CCOc1cc2c(cc1OCC)-n1cccc1C(c1ccccc1F)NC2 (centres undefined)	-5	?	-11	0	-8	1
CCOc1cc2c(cc1OCC)-n1cccc1C(c1ccc(C)cc1C)NC2 (centres undefined)	3	26*	-9	0	-7	2
COc1ccc(C#Cc2ccc([C@H]3[C@H]4CN(C(=O)Cc5cccnc5)CCCCN4[C@H]3CO)cc2)cc1	0	-5	-29	0	10	6
CN1CCN(C(=O)COc2ccc(N(C)S(=O)(=O)c3ccc(F)cc3)cc2)CC1	3	-1	-3	.	-10	23*
O=C(Cc1ccccc1)N1CCCCN2[C@H](CO)[C@@H](c3ccc(-c4ccccc4)cc3)[C@@H]2C1	-4	.	-7	-1	15	15
CC=Cc1ccc2n(c1=O)C[C@H]1[C@H](CO)[C@@H](C(=O)OC)[C@@H]2N1CC1CC1 (mixture of isomers)	-9	0	3	0	-3	-6
O=C1NC(=O)N(c2ccccc2F)C(=O)/C1=C/c1ccc(Sc2nc3ccccc3[nH]2)o1	-44	-7	i	.	-11	23*
O=C1NC(=O)N(c2cccc(Cl)c2)C(=O)/C1=C\c1ccc(Sc2nc3ccccc3[nH]2)o1	.	0	-351	6	.	9
COc1ccc2c(c1)[nH]c1c(C)nccc12	71*	-2	29	2	-5	-31	DNA binding=-15%
COc1ccc(OC(=O)N(C)C[C@H]2OCc3ccccc3-c3c(n(C)c4ccccc34)C(=O)N([C@@H](C)CO)C[C@@H]2C)cc1	.	7	21	0	.	8
CN1CCC(N(C)c2nc(-c3ccccc3)nc3ccccc23)CC1	67*	1	48	.	-11	-5	DNA binding=-16%

Ordered by molar mass (lowest first): some entries from above
SMILES	RAD54 branch	MLL AF4-AF9 inh	RAD52 anneal inh	E-selectin induc	Yeast UUG start-1	SIRT5 block	others
c1ccc2c(c1)[IH]c1ccccc1-2	52*	-12	47	8	151*	-7
CC=Cc1ccc2n(c1=O)C[C@H]1[C@H](CO)[C@@H](C(=O)OC)[C@@H]2N1CC1CC1 (mixture of isomers)	-9	0	3	0	-3	-6
CCOc1cc2c(cc1OCC)-n1cccc1C(c1cccc(F)c1)NC2 (centres undefined)	4	26*	-7	.	-13	-2
CN1CCN(C(=O)COc2ccc(N(C)S(=O)(=O)c3ccc(F)cc3)cc2)CC1	3	-1	-3	.	-10	23*
O=C1NC(=O)N(c2ccccc2F)C(=O)/C1=C/c1ccc(Sc2nc3ccccc3[nH]2)o1	-44	-7	i	.	-11	23*
COc1ccc(C#Cc2ccc([C@H]3[C@H]4CN(C(=O)Cc5cccnc5)CCCCN4[C@H]3CO)cc2)cc1	0	-5	-29	0	10	6

(next part)
SMILES	RAD54 branch	MLL AF4-AF9 inh	RAD52 anneal inh	E-selectin induc	Yeast UUG start-1	SIRT5 block	others
Cc1cc(N2CCN(C)CC2)nc2ccccc12	6	2	4	.	-18	8
CCN1CCN(c2ccc(N)c(C)c2)CC1	77*	37*	92*	.	-6	-3	DNA binding=4%;DNA binder FP=i
CC=Cc1ccc2n(c1=O)C[C@@H]1[C@@H](CO)[C@H](C(=O)N(C)C)[C@H]2N1C (mixture of isomers)	-11	1	1	0	.	-5
O=C(c1ccccc1)c1cn(CC(=O)N2CCOCC2)c2ccccc12	5	.	.	.	2	.	Yeast UUG start-2=-6
CCCN1[C@@H]2c3ccc(-c4ccccc4)c(=O)n3C[C@H]1[C@H](CO)[C@H]2C(=O)OC	-8	-2	2	0	.	-3
CC[n+]1c(/C=C/C=C/c2ccc(N(C)C)cc2)sc2ccccc21	25	86*	20	.	100*	1	Yeast UUG start-2=1;Alpha interfer=1µM*
COc1ccc(-c2ccc([C@H]3[C@H]4CN(C(=O)Cc5ccccc5)CCCCN4[C@H]3CO)cc2)cc1	-3	-5	-29	0	19	1
O=C(CCN1CC1)OCCOC(=O)CCN1CC1	-19	?	-358	-1	-24	.	Alpha interfer=-15%
CN1C2CCC1CC(OC(=O)CCN1CCCC1)C2 (centres undefined)	15	-4	.	.	1	.
CN(C)c1ccc(Cc2ccc(N(C)C)cc2)cc1	-2	46*	-9	0	-17	-1	Alpha interfer=9.3µM*
N#Cc1cccc(-c2ccc([C@@H]3[C@@H](CO)N4CCCCN(C(=O)Cc5cccnc5)C[C@H]34)cc2)c1	12	.	-2	-1	-15	-1
CCN(CC)c1ccccc1	-6	.	-2	.	-10	.
CCN(CC)c1ccc(C(=C2C=CC(=[N+](CC)CC)C=C2)c2ccccc2)cc1	.	76*	36	0	.	0	Alpha interfer=1.1µM*
COc1cc2c(c(OC)c1OC)-c1ccc(O)c(=O)cc1[C@@H](N)CC2	7	48*	46	.	-25	0	Alpha interfer=7.6µM*
O=C(Cc1ccncc1)N1CCCCN2[C@H](C1)[C@H](c1ccc(C#Cc3ccccc3F)cc1)[C@@H]2CO	9	-6	-140	0	3	2
CN(C)c1ccc(/C=C/C=C/c2sc3ccccc3[n+]2C)cc1	14	61*	63*	70*	15	-1	Alpha interfer=3.7µM*;DNA binder FP=?
CN(C)c1ccc(/C=C/c2cc[n+](C)c3ccccc23)cc1	.	41*	64*!	110*	.	2	Alpha interfer=2.9µM*;DNA binder FP=8.3µM*
O=C(Cc1cccnc1)N1CCCCN2[C@@H](CO)[C@H](c3ccc(C#CC4(O)CCCC4)cc3)[C@@H]2C1	6	-3	6	0	-6	0
COc1ccc(C#Cc2ccc([C@H]3[C@H]4CN(C(=O)Cc5ccncc5)CCCCN4[C@H]3CO)cc2)cc1	-15	-4	-73	-1	11	5
CC1(C)CC(Nc2ccc(Nc3ccccc3)cc2)CC(C)(C)N1	.	76*	100*	0	.	-1	Alpha interfer=13µM*;DNA binder FP=i
COc1ccc(OC(=O)N(C)C[C@@H]2OCc3ccccc3-c3c(n(C)c4ccccc34)C(=O)N([C@@H](C)CO)C[C@H]2C)cc1	.	3	13	0	.	1
O=c1c2ccccc2nc(-c2cccs2)n1-c1ccccc1	4	.	.	.	-7	.
NC(N)=N/N=C/c1cn(-c2ccccc2)nc1-c1cccs1	.	31*	88*	-2	.	0	Alpha interfer=-24%;DNA binder FP=i
CC12CNCC(C)(CNC1)C2O (centres undefined)	26	10	57*	.	-18	-2	DNA binder FP=i
Nc1ccc(CC2=NCCN2)cc1	.	7	84*	0	.	-2	DNA binder FP=63µM*
